Laboratory results as given in patent publication US20250283871A1, “COMPOSITIONS AND METHODS FOR MODULATING THE INTERACTION BETWEEN SS18-SSX FUSION ONCOPROTEIN AND NUCLEOSOMES” (Dana-Farber Cancer Institute, Inc., priority 2020, published 2025).

Assays:
Experiment in all cases: MBP-SSX1 78aa pull-down of HEK293T mononucleosomes, targeted histone MS, sample MM05_E01
[1] = molecular target: H2A(12to17)K13ac1 histone form in mammalian mononucleosomes from HEK-293T cells (mammalian (HEK-293T cells)) (UniProt P0C0S8)
[2] = molecular target: H2A(4to11)K9ac1 histone form in mammalian mononucleosomes from HEK-293T cells (mammalian (HEK-293T cells)) (UniProt P0C0S8)
[3] = molecular target: H2AZ(1to19)ac0 histone form in mammalian mononucleosomes from HEK-293T cells (mammalian (HEK-293T cells)) (UniProt P0C0S5)
[4] = molecular target: H2B(1to29)K5ac1 histone form in mammalian mononucleosomes from HEK-293T cells (mammalian (HEK-293T cells)) (UniProt P62807)
[5] = molecular target: H2B(1to29)ac0 histone form in mammalian mononucleosomes from HEK-293T cells (mammalian (HEK-293T cells)) (UniProt P62807)
[6] = molecular target: H3K4ac1 histone form in mammalian mononucleosomes from HEK-293T cells (mammalian (HEK-293T cells)) (UniProt P68431)
[7] = molecular target: H3K4me1 histone form in mammalian mononucleosomes from HEK-293T cells (mammalian (HEK-293T cells)) (UniProt P68431)
[8] = molecular target: H3K4me2 histone form in mammalian mononucleosomes from HEK-293T cells (mammalian (HEK-293T cells)) (UniProt P68431)
[9] = molecular target: H3K4me3 histone form in mammalian mononucleosomes from HEK-293T cells (mammalian (HEK-293T cells)) (UniProt P68431)
[10] = molecular target: H3K9me2S10ph1K14ac0 histone form in mammalian mononucleosomes from HEK-293T cells (mammalian (HEK-293T cells)) (UniProt P68431)
[11] = molecular target: H3K9me3S10ph1K14ac0 histone form in mammalian mononucleosomes from HEK-293T cells (mammalian (HEK-293T cells)) (UniProt P68431)
[12] = molecular target: H4(20to23)K20me0 histone form in mammalian mononucleosomes from HEK-293T cells (mammalian (HEK-293T cells)) (UniProt P62805)
[13] = molecular target: H4(20to23)K20me1 histone form in mammalian mononucleosomes from HEK-293T cells (mammalian (HEK-293T cells)) (UniProt P62805)
[14] = molecular target: H4(20to23)K20me3 histone form in mammalian mononucleosomes from HEK-293T cells (mammalian (HEK-293T cells)) (UniProt P62805)
[15] = molecular target: H4(4to17)K12ac1K16ac1me0 histone form in mammalian mononucleosomes from HEK-293T cells (mammalian (HEK-293T cells)) (UniProt P62805)
[16] = molecular target: H4(4to17)K5ac1K8ac1K12ac1me0 histone form in mammalian mononucleosomes from HEK-293T cells (mammalian (HEK-293T cells)) (UniProt P62805)
[17] = molecular target: H4(4to17)K5ac1K8ac1K16ac1me0 histone form in mammalian mononucleosomes from HEK-293T cells (mammalian (HEK-293T cells)) (UniProt P62805)
[18] = molecular target: H4(4to17)K5ac1K8ac1me0 histone form in mammalian mononucleosomes from HEK-293T cells (mammalian (HEK-293T cells)) (UniProt P62805)
[19] = molecular target: H4(4to17)K5ac1me0 histone form in mammalian mononucleosomes from HEK-293T cells (mammalian (HEK-293T cells)) (UniProt P62805)
[20] = molecular target: H4(4to17)K8ac1K12ac1K16ac1me0 histone form in mammalian mononucleosomes from HEK-293T cells (mammalian (HEK-293T cells)) (UniProt P62805)
[21] = molecular target: H4(4to17)K8ac1K12ac1me0 histone form in mammalian mononucleosomes from HEK-293T cells (mammalian (HEK-293T cells)) (UniProt P62805)
[22] = molecular target: H4(4to17)ac0me0 histone form in mammalian mononucleosomes from HEK-293T cells (mammalian (HEK-293T cells)) (UniProt P62805)

log2 normalized (Light/Heavy) intensity ratio [1]: -0.047 log2
log2 normalized (Light/Heavy) intensity ratio [2]: -0.375 log2
log2 normalized (Light/Heavy) intensity ratio [3]: -0.697 log2
log2 normalized (Light/Heavy) intensity ratio [4]: 0.323 log2
log2 normalized (Light/Heavy) intensity ratio [5]: 0.16 log2
log2 normalized (Light/Heavy) intensity ratio [6]: 0.32 log2
log2 normalized (Light/Heavy) intensity ratio [7]: 0.353 log2
log2 normalized (Light/Heavy) intensity ratio [8]: 0.532 log2
log2 normalized (Light/Heavy) intensity ratio [9]: 0.505 log2
log2 normalized (Light/Heavy) intensity ratio [10]: -1.09 log2
log2 normalized (Light/Heavy) intensity ratio [11]: -1.03 log2
log2 normalized (Light/Heavy) intensity ratio [12]: 0.092 log2
log2 normalized (Light/Heavy) intensity ratio [13]: -0.443 log2
log2 normalized (Light/Heavy) intensity ratio [14]: 0.055 log2
log2 normalized (Light/Heavy) intensity ratio [15]: 0.304 log2
log2 normalized (Light/Heavy) intensity ratio [16]: -0.27 log2
log2 normalized (Light/Heavy) intensity ratio [17]: 0.311 log2
log2 normalized (Light/Heavy) intensity ratio [18]: 0.094 log2
log2 normalized (Light/Heavy) intensity ratio [19]: 0.075 log2
log2 normalized (Light/Heavy) intensity ratio [20]: 0.625 log2
log2 normalized (Light/Heavy) intensity ratio [21]: -0.093 log2
log2 normalized (Light/Heavy) intensity ratio [22]: -0.573 log2
Substance: MBP-SSX1 (78aa) (from UniProt P0AEX9 27-392)
